Measurements: patent US20230218714A1, “DIAGNOSTICS AND USE OF QUORUM SENSING MOLECULES IN MUSCLE WASTING” (Universiteit Gent, priority 2019, published 2023)

Legend:
C2C12 myotubes = test: MTT reduction dose response in C2C12 myotubes; type: cell-based, mouse
Experimental: In a further set of experiments, using similar methods as described for the screening experiments, a number of QSPs were tested for a dose response relation in C2C12 cells.

C. elegans = C. elegans swimming behaviour (muscle wasting/aging model); type: in vivo; conditions: QSP in medium (1 μM; QSP022 also 10 μM), swimming parameters
Source text: The C. elegans model is a well-established aging model: they diminish in locomotory vigor as they age, a phenomenon that is attributed to a physical deterioration of muscle and synapses. QSPs were introduced in the medium of living C. elegans. As comparisons, a placebo experiment was used as negative control, while DMSO was used as positive control.
Using automatic, objective imaging software, different swimming behaviour variables associated with this decrease in locomotory vigor or muscle wasting were investigated. Wave initiation rate, travel speed, brush stroke and activity index do decrease with muscle wasting, while body wave number, asymmetry, curling and stretch do increase with muscle wasting, as described in Restif et al., Plos Computational Biology, 2014.
More in particular, the results in these tables show Q184-associated changes in three swimming parameters in wild-type adults at day 3 (Table 9) and day 12 (Table 10) (n=120-170 from 3 independent trials for each condition). Data presented are means±s.e.m (placebo set to 1.0).

C2C12 myoblasts = test: MTT cell viability assay in C2C12 myoblasts
Experimental: The mouse myoblast C2C12 cell line (ATCC, CRL-1772) was cultured at 37° C. in a 5% CO2 humidified incubator in Dulbecco's modified Eagle medium (DMEM; Thermo Fisher Scientific). For C2C12 cell proliferation, the medium was supplemented with 10% fetal bovine serum (FBS; Thermo Fisher Scientific), 100 units/ml penicillin, and 100 μg/ml streptomycin (1% Pen/Strep; Thermo Fisher Scientific). The proliferation medium was renewed each 2-3 days and confluency was kept below 80%. For differentiation of the C2C12 myoblasts into myotubes, proliferation medium was replaced by differentiation medium when cells reached 80% confluency.
Viability of QSM was assessed using the 3-(4,5-dimethylthiazol-2-yl)-2,5-diphenyltetrazolium bromide (MTT) assay. Briefly, C2C12 myoblasts were seeded in a 96-well plate (3×10^4 cells/well). 24 hours post-seeding, the wells were treated with QSM (1 μM), placebo or positive control (DMSO 2%) and incubated for 24 hours at 37° C. Next, 20 μL of MTT reagent (5 mg/mL; Sigma-Aldrich) was added to each well and the plates were returned to the incubator for 2.5 hours. After incubation, supernatant was removed from the wells and 150 μL of DMSO was added to release and dissolve the formazan crystals. Absorbance was measured at 570 nm using a microplate reader (Thermo Fisher).
The MTT assay is a widely validated and accepted viability assay for screening experiments. In this assay, the reduction of MTT into formazan, catalysed by living cell enzymes, is used as a marker of cell viability. If QSM are cytotoxic or cytostatic towards C2C12 cells, a decrease in MTT reduction is expected (viability less than 100%), while an increased C2C12 proliferation caused by QSM will result in an increased MTT reduction (viability more than 100%).
In a further set of experiments, the dose response effect of QSPs Q22 and Q184 was assessed on MTT reduction of C2C12 myotubes (tables 7.4 and 7.5).

human muscle cells = test: MTT reduction dose response in human muscle cells; type: cell-based; conditions: FIG. 9
Experimental: Differentiation medium consisted of high glucose Glutamax DMEM supplemented with penicillin (100 units/ml), streptomycin (100 μg/ml) and insulin (10 μg/mL).
Using similar methods as described for the C2C12 experiments, a number of QSPs were tested for a dose response relation in human muscle cells.

CC[C@H](C)[C@@H]1NC(=O)CNC(=O)[C@H](C(C)C)NC(=O)[C@@H](N)CSC(=O)[C@H](Cc2c[nH]c3ccccc23)NC1=O [Q022, CVGIW]
IC10 (C2C12 myotubes; MTT, Tubes): 2.38 µM | pIC50 (C2C12 myotubes; MTT, Tubes): 5.12 | Imax (relative MTT) (C2C12 myotubes; Tubes): 0.55 relative MTT | Relative MTT (C2C12 myotubes; concentration 0.10 μM): 0.99 | Relative MTT (C2C12 myotubes; concentration 0.50 μM): 1.02 | Relative MTT (C2C12 myotubes; concentration 1.00 μM): 1.03 | Relative MTT (C2C12 myotubes; concentration 5.00 μM): 0.86 | Relative MTT (C2C12 myotubes; concentration 10 μM): 0.73 | Relative MTT (C2C12 myotubes; concentration 50 μM): 0.58 | Relative MTT (C2C12 myotubes; concentration 100 μM): 0.55 | muscle wasting / aging muscle phenotype in C. elegans (C. elegans): muscle wasting effects; also recorded: inducing a muscle wasting phenotype | muscle wasting / aging muscle phenotype in C. elegans (C. elegans; listed as QSP022): induces an aging muscle phenotype | Imax (relative MTT) (C2C12 myoblasts; Blasts): 0.63 relative MTT | IC10 (C2C12 myoblasts; MTT, Blasts): 0.76 µM | pIC50 (C2C12 myoblasts; MTT, Blasts): 5.36 | Effect: viability (hit direction) (C2C12 myoblasts; screening at 1 μM, hit selection by MAD/quartile/SSMD/robust SSMD): strong decreasing viability hit | dose response relation, MTT reduction (human muscle cells): Typical curves were obtained

pIC50: −log10 of the molar value. Entries after “also recorded” stand apart in the source; their conditions may differ.
